Source: PMC10687032
The other results are listed elsewhere or left out.

Protein sequences, listed by entry. Tags and fused reporters are not part of them.
UniProt Q9Y5T5, whole entry: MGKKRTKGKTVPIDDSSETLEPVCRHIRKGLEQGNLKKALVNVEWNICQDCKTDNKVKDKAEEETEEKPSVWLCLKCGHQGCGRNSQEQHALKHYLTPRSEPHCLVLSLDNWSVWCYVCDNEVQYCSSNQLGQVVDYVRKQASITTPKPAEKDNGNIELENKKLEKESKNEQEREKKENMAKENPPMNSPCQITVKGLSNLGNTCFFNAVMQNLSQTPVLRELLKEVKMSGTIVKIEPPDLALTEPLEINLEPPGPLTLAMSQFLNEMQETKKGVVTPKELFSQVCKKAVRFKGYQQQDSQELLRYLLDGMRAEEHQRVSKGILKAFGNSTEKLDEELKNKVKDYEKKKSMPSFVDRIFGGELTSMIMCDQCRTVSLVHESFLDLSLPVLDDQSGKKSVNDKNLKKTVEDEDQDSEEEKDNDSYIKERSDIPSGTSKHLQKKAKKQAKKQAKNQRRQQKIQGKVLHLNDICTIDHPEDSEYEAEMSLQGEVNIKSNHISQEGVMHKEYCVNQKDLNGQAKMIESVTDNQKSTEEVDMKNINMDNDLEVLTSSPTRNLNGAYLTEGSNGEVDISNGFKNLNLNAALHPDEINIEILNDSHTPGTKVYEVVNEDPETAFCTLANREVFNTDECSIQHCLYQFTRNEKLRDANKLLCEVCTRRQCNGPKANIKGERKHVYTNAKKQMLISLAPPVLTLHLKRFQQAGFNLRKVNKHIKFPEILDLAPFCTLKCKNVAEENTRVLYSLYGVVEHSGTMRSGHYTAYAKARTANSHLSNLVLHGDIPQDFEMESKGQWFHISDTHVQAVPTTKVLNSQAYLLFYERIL

Target: Ubiquitin carboxyl-terminal hydrolase 16 (UniProt Q9Y5T5)
Experiment: mass-spectrometry hit list; affinity purification or IP with mass spectrometry

Question: “Ubiquitin carboxyl-terminal hydrolase 27, A6NNY8” was tested. Which “listed as a hit” value did it give?
Answer: Its value is “yes”.
